From PubChem
An excerpt weighted towards active compounds, which were near 2.2% of everything screened.
GALK inh: galactokinase (human) inhibition. Potency, µM (top dose mostly 57.5 µM), for inactives: top-dose activity change, negative = inhibition, actives largely listed as inhibitors. P51570. Purified GALK, Kinase-Glo residual ATP luminescence. hit rate 0.007% among 270,000; further: potency means the concentration at half of the fitted maximal effect; on the % scale 0 is the no-effect control and ±100 the full control effect
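Quantitative HTS: GALK 5 nM, ATP 35 uM, galactose 100 uM, 1 h room temperature, then luciferase-based ATP detection.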
miR-21 reporter: miR-21 reporter, rising signal | AID 2288 | HeLa miR-21 FLuc reporter, luciferase, 48 h | 340,000 tested, under 10 active | Potency, µM (doses to about 38.3 µM), for inactives: at the top dose reporter change, positive = more light; active = well fitted rising curve with a large enough effect; inconclusive = small, poorly fitted or top-dose-only effect; inactive = no such curve, though single readings can be large or run the other way;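 note: % of control where 0% means no effect; miR-21 action dims this reporter so a rising signal means less miR-21 action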
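HeLa cells stably expressing CMV-driven firefly luciferase with a downstream miR-21 binding sequence, endogenously expressing miR-21, were treated with titrations (up to about 40uM final) for 48 hours at 37 degree Celsius. Luciferase luminescence was read after lysis.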
PI4K2A inh: PI4K2A (human) kinase inhibition. Q9BTU6. activity change, negative = inhibition, % at 76.9 µM. hit rate 0.13% among 420,000. AID 1346378. purified PI4K2A, ADP-Glo luminescence, 1 h; hits give low values; in the data active means activity change below about -50%; inconclusive means mostly about -30% to -49%;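 further: -100% = wells without enzyme as full effect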
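Compounds are screened against recombinant PI4K2A using PI as substrate and ATP, the latter dispensed at 300 microM. Reactions run one hour at ambient temperature before ADP-Glo detection; full inhibition defined by wells lacking enzyme.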
Nrf2 ARE act: activates Nrf2 signaling. Potency, µM (doses to about 46.1 µM), for the others: at the top dose activation, most hits filed as activators. AREc32 ARE-luciferase reporter (MCF7-derived line), luminescence, 24 h. AID 624171. hit rate 0.31% among 410,000; further: potency means the concentration at half of the fitted maximal effect; % of control where 0% means no effect; nearly all actives have a fitted effect of over 65% in size
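Luciferase luminescence (Steady-Glo, 30 min at room temperature) served as the read-out of ARE activation in AREc32 cells treated with compounds for 24 hr at 37 deg C.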
Nrf2 block: inhibitors of Nrf2 signaling; hit rate 2.1% among 360,000; Potency, µM (highest dose often 46 µM), inactives show at the highest dose activity change, negative = inhibition, hits mostly inhibitors; A549 ARE-Fluc reporter, luciferase luminescence, 18-24 h; further: potency means the concentration at half of the fitted maximal effect; on the % scale 0 is the no-effect control and ±100 the full control effect; nearly all actives have a fitted effect of over 60% in size
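Concentration-response testing used A549 ARE_Fluc cells at 5000 cells/well. Following an 18-24 h compound incubation, viability was read by fluorescence (Ex 405/Em 525) and luciferase output by luminescence.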
A549 tox: counter-screen for Nrf2 inhibitors: cytotoxicity in A549 cells | Potency, µM (doses to about 46 µM), for the others: top-dose activity change, negative = cytotoxicity, hits mostly inhibitors | hit rate 0.16% among 390,000 | A549 ARE-Fluc cells, CellTiter-Fluor viability, 18-24 h; further: potency means the concentration at half of the fitted maximal effect; on the % scale 0 is the no-effect control and ±100 the full control effect
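A549 ARE_Fluc cells in 5% FBS OPTI-MEM were exposed to compounds in concentration-response for 18-24 h at 37 deg C. Viability was read by CellTiter-Fluor fluorescence (Ex 405/Em 525) after 30 min, before the luciferase read.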
Active calls of the source: *; ? = inconclusive; nt = not tested or not shown. Unless noted, the call rests on the fitted dose curve; in most records, active means well fitted curve in the direction sought with a large enough effect; inconclusive means small, poorly fitted or top-dose-only effect, or another doubt; inactive means no such curve, though single readings can be large; an effect the other way counts as inactive or inconclusive.

1: CC1CCCCN1S(=O)(=O)c1ccc(C(=O)Nc2nnc(-c3ccncc3)o2)cc1 (stereo not drawn)
2: COc1ccc(-c2nnc(NC(=O)c3ccc(S(=O)(=O)N4COCC4(C)C)cc3)o2)cc1
3: COc1ccc(C(=O)/C=C(\C)Nc2ccc(NC(C)=O)cc2)cc1
4: C/C(=C\C(=O)c1cccnc1)Nc1ccc(O)cc1
5: C/C(=C\C(=O)c1ccccc1)Nc1ccc(O)cc1
6: O=[N+]([O-])c1ccc2c(c1)S(=O)(=O)C=C2
7: O=C(OC(C(=O)Nc1ccc([N+](=O)[O-])cc1Br)c1ccccc1)c1ccccc1 (stereo not drawn)
8: COC(=O)c1cc(NC(=O)CN(c2cccc(OC)c2)S(=O)(=O)c2ccccc2)ccc1Cl
9: O=C(Nc1cccc([N+](=O)[O-])c1)Nc1cccs1
10: CN(C)S(=O)(=O)c1ccc(Cl)c(C(=O)Nc2cccc([N+](=O)[O-])c2)c1

screen / no.	1	2	3	4	5	6	7	8	9	10
GALK inh	-1%	-1%	-4%	-3%	3%	nt	1%	-5%	-1%	0%
miR-21 reporter	?	27%	-11%	-15%	31%	nt	-13%	27%	12%	16%
PI4K2A inh	-3	-2	-2	-61*	-54*	28	-2	2	-1	2
Nrf2 ARE act	0%	0%	3%	0%	-1%	nt	0%	2%	7.1µM*	13%
Nrf2 block	?	18µM*	?	15%	?	nt	23µM*	23µM*	1%	9.2µM*
A549 tox	-6%	-21%	3%	nt	10%	nt	0%	-10%	2%	-1%

11: CS(=O)(=O)Nc1ccc(C(=O)Nc2cccc([N+](=O)[O-])c2)cc1
12: Cc1cc(N2CCCC(C(=O)Nc3ccc4c(c3)CCC4)C2)n2ncnc2n1 (stereo not drawn)
13: COc1ccc(C(=O)N(Cc2ccccc2)Cc2ccccc2)c(O)c1
14: CCn1nnnc1NCc1ccc(OCc2ccc(F)cc2Cl)c(OC)c1
15: COc1ccc(/C=N/NC(=O)c2ccco2)cc1Cn1nc(C)c([N+](=O)[O-])c1C
16: CC(C)(C)OC(=O)NCc1nnc(C(C(=O)OCc2ccccc2)c2ccccc2)s1 (stereo not drawn)
17: O=C(Nc1cnc2sccn2c1=O)c1ccccc1Cl
18: Cc1ccc(S(=O)(=O)N2CCN(C(=O)c3cc(S(=O)(=O)N4CCOCC4)ccc3Cl)CC2)c(C)c1
19: O=C(c1cc(S(=O)(=O)N2CCCCC2)ccc1Cl)N1CCOCC1
20: Cc1ccc(S(=O)(=O)N2CCOCC2)cc1C(=O)N1CCCC1

screen / no.	11	12	13	14	15	16	17	18	19	20
GALK inh	-3%	-4%	nt	-2%	-2%	nt	9%	nt	4%	5%
miR-21 reporter	-6%	-12%	nt	-7%	6%	nt	-18%	nt	1%	0%
PI4K2A inh	1	1	nt	3	0	nt	3	-1	1	-2
Nrf2 ARE act	6.3µM*	0%	nt	0%	4%	nt	11µM*	0%	0%	0%
Nrf2 block	-16%	13µM*	?	21µM*	16µM*	16%	3%	21µM*	0%	?
A549 tox	-5%	-14%	-3%	-7%	?	-4%	10%	-4%	-1%	3%

Three entries out of the list above, sorted by the value under miR-21 reporter, smallest number first:
entry | SMILES | GALK inh | miR-21 reporter | PI4K2A inh | Nrf2 ARE act
12 | Cc1cc(N2CCCC(C(=O)Nc3ccc4c(c3)CCC4)C2)n2ncnc2n1 (stereo not drawn) | -4% | -12% | 1 | 0%
14 | CCn1nnnc1NCc1ccc(OCc2ccc(F)cc2Cl)c(OC)c1 | -2% | -7% | 3 | 0%
19 | O=C(c1cc(S(=O)(=O)N2CCCCC2)ccc1Cl)N1CCOCC1 | 4% | 1% | 1 | 0%

The list goes on.
21: Cc1ccc(S(=O)(=O)N2CCOCC2)cc1C(=O)N1CCN(c2ccc(C(F)(F)F)cn2)CC1
22: CC(=O)c1ccc(N2CCN(c3ccc(C(F)(F)F)cn3)CC2)cc1
23: CC(=O)c1ccc(N2CCN(c3ncc(C(F)(F)F)cc3Cl)CC2)cc1
24: CCn1cc(C(=O)N2CCN(c3cc(C)ccc3C)CC2)c(=O)c2cc(S(=O)(=O)N3CCOCC3)ccc21
25: CCn1cc(C(=O)N2CCN(c3cc(Cl)ccc3C)CC2)c(=O)c2cc(S(=O)(=O)N3CCOCC3)ccc21
26: COC(=O)[C@]12C[C@H](CC(=O)NCc3ccc(OC)c(OC)c3)C(=O)N(Cc3ccco3)C1=C[C@H](C(C)C)O[C@@H]2C1CC1
27: COC(=O)C1CN(Cc2cn(Cc3ccc(OC)cc3)nn2)CCS(=O)(=O)N1Cc1ccccc1 (stereo not drawn)
28: CCn1cc(C(=O)N2CCN(c3cccc(Cl)c3)CC2)c(=O)c2cc(S(=O)(=O)N3CCC(C)CC3)ccc21
29: COc1ccc(C2Nc3ccccc3C(=O)N2CC(C)(C)C)cc1COc1ccc(NC(C)=O)cc1 (stereo not drawn)
30: Cc1cc(C)cc(C(=O)OCCN2CCN(C3CN(Cc4cn(Cc5ccc([N+](=O)[O-])cc5)nn4)S(=O)(=O)C3)CC2)c1 (stereo not drawn)

screen / no.	21	22	23	24	25	26	27	28	29	30
GALK inh	nt	0%	-3%	nt	nt	nt	nt	nt	nt	nt
miR-21 reporter	nt	-10%	-8%	-9%	27%	nt	nt	19%	nt	nt
PI4K2A inh	-2	-4	4	-3	2	-3	-6	-4	nt	-4
Nrf2 ARE act	4%	0%	0%	-1%	-1%	nt	nt	0%	nt	nt
Nrf2 block	26µM*	9.2µM*	?	-10%	21µM*	nt	nt	21µM*	-1%	nt
A549 tox	0%	0%	0%	2%	-12%	nt	nt	-4%	-9%	nt

Down the list, from the results shown:
A549 tox, entries 5 to 16, in order: 10%, nt, 0%, -10%, 2%, -1%, -5%, -14%, -3%, -7%, ?, -4%

Next section.
31: COc1ccc(CNc2ncc(-c3ccc(F)cc3)n2C)c2ccccc12
32: COc1ccccc1CNc1ncc(-c2ccc(F)cc2)n1C
33: FC(F)(F)c1ccc(N2CCOCC2)c(Nc2nc3ccccc3n3cnnc23)c1
34: O=C(NC1CCCCN(Cc2cccc(Cl)c2)C1=O)c1cccc(C(F)(F)F)c1 (stereo not drawn)
35: CC1=C(C(=O)Nc2ccc(Cl)cc2)C(c2ccccc2C)n2ncc(C(=O)Nc3ccc(C)cc3)c2N1 (stereo not drawn)
36: CC1=C(C(=O)Nc2ccc(Cl)cc2)C(c2ccccc2)n2ncc(C(=O)Nc3ccccc3)c2N1 (stereo not drawn)
37: Cc1nc2ccc(NS(=O)(=O)c3ccc(F)cc3F)cc2s1
38: Cc1nc2ccc(NS(=O)(=O)c3c(F)cc(F)cc3Br)cc2s1
39: Cc1nc2ccc(NS(=O)(=O)c3ccc(F)c(F)c3F)cc2s1
40: CC(C)(C)c1cc(=O)n(-c2ccccc2)[nH]1

screen / no.	31	32	33	34	35	36	37	38	39	40
GALK inh	1%	4%	-2%	nt	nt	nt	nt	nt	nt	nt
miR-21 reporter	15%	-7%	1%	nt	25%	?	nt	nt	nt	?
PI4K2A inh	6	6	2	-4	-2	3	1	-1	4	-54*
Nrf2 ARE act	-2%	0%	7%	nt	6%	4%	0%	0%	4%	7%
Nrf2 block	21µM*	-5%	21µM*	nt	-29%	16µM*	13µM*	21µM*	-22%	-6%
A549 tox	0%	-1%	16µM*	nt	-4%	-24%	0%	-1%	5%	3%

41: O=C(Cn1nnc(-c2ccc(N3CCOCC3)cc2)n1)c1cccc(F)c1
42: FC(F)(F)C1=Nc2cccc3cccc(c23)N1
43: Cc1cc(=O)oc2cc(NC(=O)c3ccccc3Cl)ccc12
44: CC(=O)c1c(C)[nH]c(C(=O)CSc2nc3ccccc3n2C)c1C

screen / no.	41	42	43	44
GALK inh	nt	nt	4%	3%
miR-21 reporter	nt	nt	-82%	12%
PI4K2A inh	1	-64*	-2	-8
Nrf2 ARE act	nt	0%	5µM*	2%
Nrf2 block	nt	-7%	23%	15µM*
A549 tox	nt	?	-2%	-3%
